Reference: ChEMBL document CHEMBL1140221, “Novel naphthalene-N-sulfonyl-D-glutamic acid derivatives as inhibitors of MurD, a key peptidoglycan biosynthesis enzyme” (J Med Chem, 2008)

Assay: Inhibition of Escherichia coli MurD

Structure (SMILES) | IC50 [µM]
N#Cc1ccc(COc2ccc3ccc(S(=O)(=O)N[C@H](CCC(=O)O)C(=O)O)cc3c2)cc1 | 122
N#Cc1ccc(COc2ccc3cc(S(=O)(=O)N[C@H](CCC(=O)O)C(=O)O)ccc3c2)cc1 | 105
